Measured values reported in PubChem BioAssay AID1987 (The Scripps Research Institute Molecular Screening Center, 2009).
Only a part is listed here, and it is no random draw. Some of these compounds have results that are not shown, active ones among them. Active and inactive are the calls of the source.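 The calls were made as follows: active = inhibition above the campaign's mean inhibition across all tested compounds plus 3 SD (cut at about 9.5% in these data); inactive = the rest.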

By UniProt entry, the sequences of proteins in these tests, tags left out.
UniProt P53041, whole entry: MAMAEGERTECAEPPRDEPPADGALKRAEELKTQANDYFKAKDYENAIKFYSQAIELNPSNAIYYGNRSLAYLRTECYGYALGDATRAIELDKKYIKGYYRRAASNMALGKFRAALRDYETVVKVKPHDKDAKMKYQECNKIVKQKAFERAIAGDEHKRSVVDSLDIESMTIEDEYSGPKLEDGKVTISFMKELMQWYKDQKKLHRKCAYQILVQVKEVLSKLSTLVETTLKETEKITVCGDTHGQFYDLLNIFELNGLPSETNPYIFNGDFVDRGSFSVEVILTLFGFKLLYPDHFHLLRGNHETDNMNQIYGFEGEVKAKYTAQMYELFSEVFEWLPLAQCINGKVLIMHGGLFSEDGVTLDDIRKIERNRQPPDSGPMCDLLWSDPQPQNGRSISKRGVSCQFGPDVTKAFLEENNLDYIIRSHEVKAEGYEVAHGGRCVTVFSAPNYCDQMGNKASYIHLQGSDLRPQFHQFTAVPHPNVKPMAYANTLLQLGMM

target: Serine/threonine-protein phosphatase 5 (Homo sapiens) (UniProt P53041); assay: PP5 phosphatase inhibitors, primary screen, biochemical, fluorescence (AID 1987); conditions: purified PP5c, OMFP substrate fluorescence; at 6.7 µM; active compounds read high;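 also: 0% = DMSO only and 100% = 100 µM cantharidin control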

Q: How did the inhibition turn out when `COc1ccc(Br)c(C(=O)NCC2(N3CCCCC3)CCCCC2)c1` was run?
A: Its inhibition is inactive: 0.9%.

Q: `CN(C)c1cccc(C(=O)NCC2(N(C)C)CCCCC2)c1` was tested. Which inhibition did it give?
A: The inhibition was inactive: -1.91%.

Q: Which inhibition does the source give for `CC(C)Oc1ccc(C(=O)NCC2(N(C)C)CCCCC2)cc1` here?
A: The inhibition was inactive: 1.13%.

Q: How did the inhibition turn out when `O=C(OC1CN2CCC1CC2)C(CO)(c1ccccc1)c1ccccc1` (centres undefined) was run?
A: The inhibition was inactive: -2.66%.

Q: `COc1ccc(Cl)cc1C(=O)NCC1(N(C)C)CCCCC1` was tested. Which inhibition did it give?
A: The inhibition was inactive: -0.16%.

Q: For `COc1cccc(C(=O)NCC2(N3CCCCC3)CCCCC2)c1`, which inhibition is on record?
A: The inhibition was inactive: -2.08%.

Q: `O=C(NCC1(N2CCCCC2)CCCCC1)c1cccc(Cl)c1` was tested. Which inhibition did it give?
A: Its inhibition is inactive: 2.46%.

Q: `CN(C)C1(CNC(=O)c2ccc(Br)cc2)CCCCC1` was tested. Which inhibition did it give?
A: The inhibition was inactive: 2.85%.

Q: How did the inhibition turn out when `COc1cc(C(=O)NCC2(N(C)C)CCCCC2)c([N+](=O)[O-])cc1OC` was run?
A: The inhibition was inactive: 0.56%.

Q: For `O=C(NCC1(N2CCCCC2)CCCCC1)c1cc(F)c(F)cc1Cl`, which inhibition is on record?
A: The inhibition was inactive: 3.28%.

Q: Which inhibition does the source give for `C=CCN1CCN(CCOC(=O)C(O)(c2ccccc2)c2ccccc2)CC1` here?
A: The inhibition was inactive: 0.06%.

Q: With `O=C(NCC1(N2CCCCC2)CCCCC1)c1cccc(Br)c1` as the compound, how does the inhibition read?
A: Its inhibition is inactive: 1.42%.

Q: Which inhibition does the source give for `CCN1CCCC(OC(=O)C2(O)c3ccccc3C=Cc3ccccc32)C1` (centres undefined) here?
A: Its inhibition is inactive: 0.71%.

Q: For `Cc1cc(C(=O)NCC2(N3CCCCC3)CCCCC2)ccc1[N+](=O)[O-]`, which inhibition is on record?
A: The inhibition was inactive: -0.72%.

Q: Which inhibition does the source give for `COc1ccc(C(=O)NCC2(N(C)C)CCCCC2)cc1` here?
A: Its inhibition is inactive: 0.84%.

Q: How did the inhibition turn out when `CN(C)c1ccc(C(=O)NCC2(N(C)C)CCCCC2)cc1` was run?
A: The inhibition was inactive: -0.46%.

Q: How did the inhibition turn out when `CN(C)C1CCCC1OC(=O)C(O)(c1ccccc1)c1ccccc1` (centres undefined) was run?
A: The inhibition was inactive: -2.51%.

Q: For `Cc1ccccc1C(=O)NCC1(N2CCCCC2)CCCCC1`, which inhibition is on record?
A: The inhibition was inactive: -0.64%.

Q: How did the inhibition turn out when `CC(C)N1C(=O)CC2(CCN(CCOC(=O)C(O)(c3ccccc3)c3ccccc3)CC2)C1=O` was run?
A: Its inhibition is inactive: 1.71%.

Q: With `COc1cc(SC)ccc1C(=O)NCC1(N(C)C)CCCCC1` as the compound, how does the inhibition read?
A: Its inhibition is inactive: -2.14%.

Q: How did the inhibition turn out when `CCN(CC)CC(C)C(C)OC(=O)C(O)(c1ccccc1)c1ccccc1` (centres undefined) was run?
A: Its inhibition is inactive: -1.5%.

Q: For `Cc1ccc(C(=O)NCC2(N3CCCCC3)CCCCC2)cc1`, which inhibition is on record?
A: Its inhibition is inactive: 2.08%.

Q: `O=C(NCC1(N2CCCCC2)CCCCC1)c1cc([N+](=O)[O-])ccc1Cl` was tested. Which inhibition did it give?
A: The inhibition was inactive: 1.37%.

Q: `CN1[C@@H]2CC[C@H]1CC(OC(=O)C(O)(c1ccccc1)c1ccccc1)C2` (some centres undefined) was tested. Which inhibition did it give?
A: Its inhibition is inactive: 0.38%.
